Apparent affinities of Ab-95 variants for a coronavirus HR2 peptide

Reference: Engelhart et al. 2022, doi:10.1038/s41597-022-01779-4. File: FLAb, binding data.

Antigen: PDVDLGDISGINAS, a 14-residue peptide of the SARS-CoV-2 spike HR2 region.

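In library AAYL52, one, two or three CDR residues were substituted; doubles and triples were drawn at random. The assay is AlphaSeq: two haploid yeast populations carry antibody and antigen on their surface. Mating (16 h, 30 °C) was followed by selection of diploids and sequencing of their barcodes. Scores were corrected for input abundance and mapped to Kd with protein pairs of known affinity run in the same pool. Mating was done three times.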

Each scFv is VH, the linker GGGGSGGGGSGGGGS, VL, as in the parent Ab-95, and differs from it in the CDRs of the light chain only.
VH: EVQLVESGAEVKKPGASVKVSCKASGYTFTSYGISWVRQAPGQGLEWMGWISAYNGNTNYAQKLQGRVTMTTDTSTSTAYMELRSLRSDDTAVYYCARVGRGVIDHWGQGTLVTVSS
VL: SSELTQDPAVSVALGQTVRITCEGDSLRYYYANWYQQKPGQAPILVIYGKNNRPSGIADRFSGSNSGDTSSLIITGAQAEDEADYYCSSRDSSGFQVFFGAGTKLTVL

Variants are written as CDR1, CDR2 and CDR3 of the light chain (limits as in the source). Parent: EGDSLRYYYAN, GKNNRPS, SSRDSSGFQVF.
Affinities are written as log10 Kd with Kd in nM; a lower number is a better binder.
The mean shown is taken over the replicates in which the pair was detected.
"nd" means that the variant was in the library but no mating with the target was seen in that replicate; the authors take this as a sign of poor binding, and no number exists.

CDR-L1 | CDR-L2 | CDR-L3 | log10 Kd (nM) by replicate | mean, log10 nM | empty controls
EGDSQRYYYAN | GKNIRPS | SSRDSSHFQVF | 3.81 / nd / nd | 3.81 | 3 of 9 (4.00)
EEDPLRYYYAN | GKNNRPS | SSRDSSGFQVF | nd / nd / nd | nd | 2 of 9 (3.55)
EWDSCRYYYAN | GKNNRPS | SSRDSSGFQQF | nd / nd / nd | nd | 1 of 9 (4.49)
EGDSDRYYYAN | GKNNRPS | SSRDWPGFQVF | nd / nd / nd | nd | 1 of 9 (3.28)
EGDSLRDYYAN | GKNNRPS | FSRDSSGFQVR | 2.46 / 1.88 / 1.81 | 2.05 | 5 of 9 (3.99)
EGDSLRYYYAN | GKNYRPS | SSRDSHGFQVF | 4.04 / 3.90 / nd | 3.97 | 0 of 9
EGDSLRYYYAN | RKNNRPS | SSRDSSRFQVF | nd / nd / nd | nd | 1 of 9 (3.88)
EGDSCRYYYAN | GKNNRLS | SSRWSSGFQVF | 3.40 / 4.20 / nd | 3.80 | 4 of 9 (3.09)
EGNSLRYYYAN | GKNNRPS | SSRDSSGFQVF | 2.27 / 2.18 / 2.15 | 2.20 | 2 of 9 (4.85)
EGDSEWYYYTN | GKNNRPS | SSRDSSGFQVF | 3.74 / 3.55 / 3.90 | 3.73 | 5 of 9 (3.41)
EGDRLRYYYAN | GKNNRPS | SSRDQSGFQVT | 4.07 / 3.66 / nd | 3.87 | 4 of 9 (4.39)
EGDKERYYYAN | GKNNRPS | SSRISSGFQVF | 3.27 / 4.51 / nd | 3.89 | 3 of 9 (4.43)
EGDSLRYYSAN | GKGNRPS | SSRDSSGFQPF | 4.66 / 3.71 / nd | 4.19 | 2 of 9 (3.56)
HGDSLRYYYAN | GKNNRPT | SSRDSSGFKVF | 1.95 / 2.13 / 1.98 | 2.02 | 3 of 9 (3.58)
SGDSRRYYYAN | GKNNRPS | SSRDSSGFIVF | 3.73 / 3.33 / 4.35 | 3.80 | 3 of 9 (4.13)
EGDSLRYYYAN | GKNNRPS | SSRTNDGFQVF | 2.07 / 2.31 / 1.95 | 2.11 | 3 of 9 (4.16)
EGDSLRYYYAH | GKNNWPS | SQRDSSGFQVF | nd / nd / nd | nd | 2 of 9 (3.62)
EGDSLRYHYAN | GKNNRVV | SSRDSSGFQVF | 1.60 / 1.64 / 1.13 | 1.46 | 4 of 9 (4.46)
EGDSLRYYYAD | GKDNRPS | SSRDSSGFKVF | nd / nd / nd | nd | 1 of 9 (4.51)
WGDSYRYYYAN | GKNNRPS | SSRDSSGFQVT | nd / nd / nd | nd | 2 of 9 (3.92)
EGDSLHAYYAN | GKNNRPS | SSRDSSGEQVF | 2.08 / 2.36 / 1.73 | 2.05 | 3 of 9 (4.30)
EGDSLRYYYAN | GKMNRPS | SSRDSVGEQVF | 4.23 / nd / nd | 4.23 | 0 of 9
EMDSLRYYYAN | GKNNRNS | SSRDSSGFQVF | nd / 3.98 / nd | 3.98 | 3 of 9 (3.94)
EGDSLRYYYAN | GENGRPS | SSMDSSGFQVF | 2.84 / 2.41 / 2.59 | 2.61 | 3 of 9 (3.74)
EGDSLRSYQAN | GKNNRPS | SSRDTSGFQVF | 1.19 / 1.11 / 0.55 | 0.95 | 3 of 9 (3.98)
EGPSLRCYYAN | GKNNRQS | SSRDSSGFQVF | 2.33 / 2.26 / 2.22 | 2.27 | 4 of 9 (3.97)
EGDSLRYYYAN | GKNNRPD | SSRDFSYFQVF | nd / 4.55 / nd | 4.55 | 4 of 9 (3.94)
EGYSLRYYTAN | GKNQRPS | SSRDSSGFQVF | 1.59 / 1.29 / 1.11 | 1.33 | 0 of 9
EGDLLRHYYAN | GKNNRPS | SHRDSSGFQVF | 1.91 / 1.81 / 1.54 | 1.75 | 8 of 9 (3.75)
VGDSLRYYYAN | GKNNRPS | SSRESSGFQVF | 2.43 / 2.41 / 2.27 | 2.37 | 3 of 9 (4.01)
EGDSLVYYYAN | GKNNRPS | SSRCSSGFQSF | nd / 4.24 / nd | 4.24 | 3 of 9 (4.09)
EGDSLRYYQAN | GKRNRPS | SSMDSSGFQVF | nd / nd / nd | nd | 0 of 9
EGDVLRYYYAN | GKNARPS | SSRDSSGFAVF | nd / nd / nd | nd | 0 of 9
ESDSLRYYYAN | GKNNRPS | SSRSSSGFQCF | 2.56 / 3.14 / 3.13 | 2.95 | 4 of 9 (4.55)
EGDRLRYYYAN | GYNNRPS | SSRDSGGFQVF | 5.38 / 5.96 / 3.24 | 4.86 | 4 of 9 (4.68)
EGDSLRYYYAN | GKNNRPS | SPRDSSGIQRF | 2.70 / 3.53 / 2.16 | 2.79 | 7 of 9 (3.86)
EGDSLRYYCAN | GKNNRPS | SSRDSSGSQVF | 2.31 / 2.17 / 1.82 | 2.10 | 4 of 9 (4.27)
EGDSLQYYYAN | GKSNRPS | SSRDSSGFEVF | 3.16 / 3.05 / 2.96 | 3.06 | 3 of 9 (4.40)
EGDSLRTYYAN | GKNNRPS | SPRDSSSFQVF | 1.60 / 1.86 / 1.32 | 1.59 | 5 of 9 (4.07)

A selection of 6 entries from above:

CDR-L1	CDR-L2	CDR-L3	log10 Kd (nM) by replicate	mean, log10 nM	empty controls
EGDSLRYYQAN	GKRNRPS	SSMDSSGFQVF	nd / nd / nd	nd	0 of 9
EGDSLRYYYAH	GKNNWPS	SQRDSSGFQVF	nd / nd / nd	nd	2 of 9 (3.62)
EGDVLRYYYAN	GKNARPS	SSRDSSGFAVF	nd / nd / nd	nd	0 of 9
EGDSLRYYYAD	GKDNRPS	SSRDSSGFKVF	nd / nd / nd	nd	1 of 9 (4.51)
EGDSLRTYYAN	GKNNRPS	SPRDSSSFQVF	1.60 / 1.86 / 1.32	1.59	5 of 9 (4.07)
EGDSLHAYYAN	GKNNRPS	SSRDSSGEQVF	2.08 / 2.36 / 1.73	2.05	3 of 9 (4.30)

Nonspecific signal, from three strains lacking the peptide, appeared in 28% of pairings of library AAYL52, centred on 3.91 (5% of these signals below 2.90); values are not corrected for it. Also given: how often the same scFv was detected with the empty control strains, with their mean in brackets.